Source: patent US20020173538A1, “Method for sensitizing cancer cells to cancer therapies with a mevalonate-reducing compound” (priority 2000, published 2002)

Tested on: Hep 3B cells
Assay: MTT cell viability assay, Hep 3B cells (serum-free DMEM)
Conditions: Homo sapiens, Hep3B, 72 h, read-out: Cell viability, lovastatin 20 μM, 72 hr

In the case of `CC[C@H](C)C(=O)O[C@H]1C[C@@H](C)C=C2C=C[C@H](C)[C@H](CC[C@@H]3C[C@@H](O)CC(=O)O3)[C@H]21` [Lovastatin, lovastatin], the viability at 20 µM is reported as 31.5 ± 5.3%.
